From patent US9072774B2, “Porphyrin nanovesicles” (UNIVERSITY HEALTH NETWORK, priority 2009, dated 2015)

Experiment: Differential scanning calorimetry
Format: physicochemical
Conditions: 5 mg/ml in PBS, scan rate 1° C./min
Protocol: Differential scanning calorimetry was performed on 5 mg/ml samples of DMPC, HSPC, Lyso PC and Pyro-Lipid in PBS using a calorimetry Sciences Corp. 6100 Nano Differential Scanning calorimeter (Lindon, Utah). Samples were placed in a vacuum for 30 min prior to measurement. A scan rate of 1° C./min was used for all samples. PBS was used as the reference and one scan cycle of PBS was used as the baseline. For each lipid, three cooling and heating scans were performed and the results averaged to determine the phase transition temperature of the lipids.

Q: For “Lyso-Phosphatidyl Choline (16:0)-Pyropheophorbide [Pyro-lipid]”, which transition temperature is on record?
A: no distinct transition temperature
